The record followed here is BindingDB's records for 22325154.

Sequences of proteins named here, by UniProt entry; tags and fusion partners are left off. Residues count along the entry.
UniProt P00489, 2-843 limits assumed: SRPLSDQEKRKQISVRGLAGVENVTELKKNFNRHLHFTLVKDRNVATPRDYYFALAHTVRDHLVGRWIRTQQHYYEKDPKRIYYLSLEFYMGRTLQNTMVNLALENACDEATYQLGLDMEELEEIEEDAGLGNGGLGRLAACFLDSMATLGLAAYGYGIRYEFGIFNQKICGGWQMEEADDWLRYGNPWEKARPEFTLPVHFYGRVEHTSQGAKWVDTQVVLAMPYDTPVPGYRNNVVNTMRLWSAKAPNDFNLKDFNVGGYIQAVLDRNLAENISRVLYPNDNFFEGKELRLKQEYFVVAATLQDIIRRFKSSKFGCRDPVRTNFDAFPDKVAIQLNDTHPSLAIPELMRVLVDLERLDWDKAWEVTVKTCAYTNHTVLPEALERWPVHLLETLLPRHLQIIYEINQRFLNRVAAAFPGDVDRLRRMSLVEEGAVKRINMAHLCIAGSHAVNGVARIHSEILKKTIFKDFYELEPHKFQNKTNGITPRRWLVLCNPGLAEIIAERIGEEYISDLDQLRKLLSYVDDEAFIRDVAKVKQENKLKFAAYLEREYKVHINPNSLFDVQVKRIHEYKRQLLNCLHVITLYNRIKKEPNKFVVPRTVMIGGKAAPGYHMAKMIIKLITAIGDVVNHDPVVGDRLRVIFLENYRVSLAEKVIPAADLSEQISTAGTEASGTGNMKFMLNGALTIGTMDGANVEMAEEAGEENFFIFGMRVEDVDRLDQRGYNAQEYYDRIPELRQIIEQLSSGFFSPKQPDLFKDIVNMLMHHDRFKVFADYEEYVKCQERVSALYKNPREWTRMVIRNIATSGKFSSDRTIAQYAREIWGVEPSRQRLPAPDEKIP

The target in the experiment is Glycogen phosphorylase, muscle form (Oryctolagus cuniculus, UniProt P00489). The note with it: pH 6.8.

`COP(=O)(N[C@@H]1O[C@H](CO)[C@@H](O)[C@H](O)[C@H]1O)OC` had an inhibition constant (Ki) of 5.9 mM.
